Experimental data: patent US11999802B2, “Compositions and methods for selective protein degradation” (Novartis AG, priority 2017, dated 2024)

Test system: HilD-tagged CAR19 / FurON-CAR19
Assay type: cell-based
[1] = CAR19-16GS-HilD-tag (construct 769), 10 μM lenalidomide

Nc1cccc2c1CN(C1CCC(=O)NC1=O)C2=O (stereo not shown) [lenalidomide, 3-(4-amino-1-oxoisoindolin-2-yl)piperidine-2,6-dione] was tested, and the “degradation of FurON-CAR19 with the HilD tag” value (10 μM lenalidomide, 24 hours, 1 μM bazedoxifene) was “almost completely degraded”, the “time at which degradation was evident” value [1] was 4 h and the “time to maximal degradation” value [1] was at most 8 h. The “lowest concentration degrading CAR19-16GS-HilD-tag fusion protein” value (construct 769, Western blot) was at least 100 nM.
